An excerpt weighted towards active compounds, which were near 16% of everything screened.
uPA generation – inhibitors of cell surface uPA generation. cell surface uPA generation assay, qHTS. Potency, µM (highest dose often 38.3 µM), for the others: top-dose activity change, negative = inhibition, most hits filed as inhibitors. 330,000 compounds, 0.31% hits; active means well fitted inhibition curve with a large enough effect; inconclusive means small, poorly fitted or top-dose-only effect; inactive means no such curve, though single readings can be large or run the other way; tested in mouse RAW 264.7 cells; further: potency means the concentration at half of the fitted maximal effect; on the % scale 0 is the no-effect control and ±100 the full control effect; nearly all actives have a fitted effect of over 55% in size
TDP1 cell CPT – growth inhibition of DT40 Tdp1-/-;hTDP1 cells with camptothecin (screen for TDP1 inhibitors) | 420,000 compounds, 12% hits | chicken DT40 Tdp1-/-;hTDP1 cells + 20 nM CPT, ATP luminescence, 48 h | Potency, µM (doses to about 46.2 µM), for inactives: top-dose activity change, negative = growth inhibition, most hits filed as inhibitors | AID 686979; further: potency means the concentration at half of the fitted maximal effect; on the % scale 0 is the no-effect control and ±100 the full control effect; nearly all actives have a fitted effect of over 55% in size
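Chicken DT40 Tdp1-/- cells stably complemented with human TDP1 were seeded at 400 cells/well in medium containing 20 nM camptothecin, exposed to pin-transferred compounds, and grown at 37 °C for at least 48 hr. Viability was read as ATP luminescence.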
TDP1 block – blocks human tyrosyl-DNA phosphodiesterase 1. Q9NUW8. recombinant TDP1, AlphaScreen DNA substrate cleavage. Potency, µM (series often up to 130 µM), without a hit: at the top dose activity change, negative = inhibition, hits mostly inhibitors. 350,000 compounds, 0.28% hits. AID 485290; further: potency means the concentration at half of the fitted maximal effect; on the % scale 0 is the no-effect control and ±100 the full control effect; nearly all actives have a fitted effect of over 40% in size
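Recombinant human Tdp1 (E. coli-expressed, 1 nM final) preincubated with compounds 15 min at room temperature, then 5'-biotin/3'-phosphotyrosine-FITC DNA substrate (15 nM final) added for 5 min. AlphaScreen beads (10 ug/ml final) added 10 min; cleavage lowers signal.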
TDP1 cell noCPT – qHTS for Inhibitors of human tyrosyl-DNA phosphodiesterase 1 (TDP1): qHTS in cells in absence of CPT; DT40 Tdp1-/- hTDP1 cells, no CPT, ATP luminescence, 48 h; Potency, µM (top dose mostly 46.2 µM), for inactives: at the top dose activity change, negative = growth inhibition, most hits filed as inhibitors; 420,000 compounds, 15% hits; AID 686978, 2013; further: potency means the concentration at half of the fitted maximal effect; on the % scale 0 is the no-effect control and ±100 the full control effect; nearly all actives have a fitted effect of over 55% in size
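Readout: luminescence from CellTiter-Glo after 30 min in the dark at RT. Cells: DT40 Tdp1-/- with stable hTDP1, 400/well. Exposure: compounds alone, ≥48 hr, 37 °C.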
miR-21 FLuc – miR-21 reporter, rising signal. HeLa miR-21 FLuc reporter, luciferase, 48 h. Potency, µM (highest dose often 38.3 µM), for the others: at the highest dose reporter change, positive = more light. 340,000 tested, under 10 active. AID 2288; active = well fitted rising curve with a large enough effect; inconclusive = small, poorly fitted or top-dose-only effect; inactive = no such curve, though single readings can be large or run the other way;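 further: % of control where 0% means no effect; miR-21 action dims this reporter so a rising signal means less miR-21 action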
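Using DMEM plus 10% FBS, HeLa miR-21-FLuc cells are incubated with test compounds (final up to about 40uM) for 48 hours; firefly luciferase signal is then imaged following reagent-mediated lysis.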
Starred values were filed as active, the others as inactive; ? = inconclusive; . = not tested or not shown; [ ] = another dose, or the depositor's remark. Unless noted, the call rests on the fitted dose curve; in most records, active means well fitted curve in the direction sought with a large enough effect; inconclusive means small, poorly fitted or top-dose-only effect, or another doubt; inactive means no such curve, though single readings can be large; an effect the other way counts as inactive or inconclusive.

cpd	canonical_smiles	miR-21 FLuc	uPA generation	TDP1 cell CPT	TDP1 block	TDP1 cell noCPT
1	CC(=O)c1cccc(NCC(=O)Nc2cc(S(=O)(=O)N3CCCCC3)ccc2C)c1	1%	-5%	16µM*	2%	?
2	Cc1ccc(S(=O)(=O)N2CCCCC2)cc1NCC(=O)Nc1ccc(Br)cc1F	.	.	4.6µM*	.	3.7µM*
3	S=C(NC1CCCCC1)NC1CC2C=CC1C2 (configuration not stated)	-13%	4%	?	6%	?
4	CC(=O)c1ccc(S(=O)(=O)Nc2cccc(-n3cnnn3)c2)cc1	-1%	0%	-28%	?	0%
5	Cc1ccc(Cl)cc1N(CC(=O)NC(C)c1ccccc1)S(C)(=O)=O (configuration not stated)	6%	1%	-6%	.	-13%
6	O=C(CNc1cccc(S(=O)(=O)N2CCCC2)c1)Nc1cccc(Br)c1	.	-1%	?	1%[0.505 µM]	21µM*
7	COc1ccc(S(=O)(=O)N(C)C)cc1NCC(=O)Nc1ccc(Br)cc1F	6%	-3%	13µM*	6%	29µM*
8	Nc1c(C(=O)Nc2ccc3c(c2)OCCO3)nnn1Cc1ccccc1Cl	.	-6%	?	6%	-29%
9	Cc1ccc(S(=O)(=O)NC(=O)C2(C)CCN2C(=O)CCc2ccc(Cl)cc2Cl)nc1 (configuration not stated)	.	.	-4%	.	-6%
10	Cc1cccc(OCCSc2nnc(-c3ccoc3C)n2C)c1	-13%	-4%	23µM*	5%	21µM*
11	Cc1cccc(OCCSc2nncn2C)c1	-30%	-1%	?	-1%	-23%
12	Cn1c(N)c(C(=O)COC(=O)c2ccccc2C(=O)c2ccc(Cl)c([N+](=O)[O-])c2)c(=O)n(C)c1=O	.	-12%	?	0%	18µM*
13	O=C(COC(=O)c1ccc2c(c1[N+](=O)[O-])C(=O)c1ccccc1C2=O)NC1CC1	-3%	-10%	3.7µM*	4%	?
14	CC(C)N(C(=O)COC(=O)c1ccccc1C(=O)c1ccc(Cl)c([N+](=O)[O-])c1)C(C)C	20%	.	?	3%	?
15	O=C(COC(=O)c1ccccc1C(=O)c1ccc(Cl)c([N+](=O)[O-])c1)NC1CCCCCC1	9%	.	?	8%	23µM*
16	O=C(COC(=O)c1ccc(Cl)c([N+](=O)[O-])c1)NC1CCCC1	4%	1%	-20%	.	10%
17	CN(CCC#N)C(=O)COC(=O)c1ccccc1C(=O)c1ccc(Cl)c([N+](=O)[O-])c1	?	-8%	16µM*	-2%	?
18	Cn1c(N)c(C(=O)COC(=O)c2ccccc2C(=O)c2ccccc2)c(=O)n(C)c1=O	.	-15%	?	3%	-4%
19	CC1CN(C(=O)COc2ncnc3ccccc23)CC(C)O1 (configuration not stated)	-2%	0%	0%	-2%	11%
20	CC(C)(C)c1ccc(C(=O)NCC(c2ccco2)S(=O)(=O)c2ccccc2)cc1 (configuration not stated)	1%	.	18µM*	3%	23µM*
21	CCOc1ccc(C(=O)NCC(c2cccs2)S(=O)(=O)c2ccccc2)cc1 (configuration not stated)	23%	.	29µM*	5%	?
22	CC(C)(C)c1ccc(C(=O)NCC(c2cccs2)S(=O)(=O)c2ccccc2)cc1 (configuration not stated)	29%	.	16µM*	0%	15µM*
23	O=S(=O)(NCC(c1cccs1)S(=O)(=O)c1ccccc1)c1ccccc1 (configuration not stated)	12%	.	1.2µM*	-5%	1.8µM*
24	CCOc1ccc(C(=O)NCC(c2cccs2)N(C)C)cc1 (configuration not stated)	-23%	9%	?	3%	-19%
25	O=S(=O)(NCC(c1ccco1)S(=O)(=O)c1cccs1)c1ccccc1 (configuration not stated)	-1%	.	?	-3%	-28%
26	COc1cc(C(=O)NCC(c2ccco2)S(=O)(=O)c2ccccc2)cc(OC)c1OC (configuration not stated)	-1%	.	?	0%	?
27	O=C(CCCCC(=O)Nc1ccc(F)cc1)Nc1ccc(F)cc1	-2%	4%	-12%	6%	5%
28	CCC(NC(=O)Nc1ccc(O)cc1)(C(F)(F)F)C(F)(F)F	-8%	0%	-21%	1%	-30%
29	COc1cc(/C=C/C(=O)OC(C)C(=O)c2ccccc2)cc(OC)c1OC (configuration not stated)	.	7%	21µM*	0%	15µM*
30	O=C(/C=C/c1ccccc1F)c1cccc([N+](=O)[O-])c1	-4%	-12%	?	4%	21µM*
31	COc1cc(/C=C/C(=O)OCC(=O)NC(C)c2ccccc2)cc(OC)c1OC (configuration not stated)	.	1%	11%	0%	-22%
32	O=C(Oc1ccc(F)cc1C(=O)/C=C/c1cccs1)c1cccc([N+](=O)[O-])c1	12%	-9%	0.16µM*	8%	0.37µM*
33	COc1cc(/C=C/C(=O)c2cccc([N+](=O)[O-])c2)cc(OC)c1OC	?	-13%	5.8µM*	11%	5.2µM*
34	COc1cc2c(cc1OC)C(c1cc3cc(OC)c(OC)cc3[nH]c1=O)N(C(=O)C1CC1)CC2 (configuration not stated)	-16%	.	-27%	-1%	-18%
35	O=C1CCCC2[C@@H]3CCC[N@+]4([O-])CCC[C@H](CN12)C34 (some centres not stated)	.	.	6%[9.04 µM]	4%	1%[9.04 µM]
36	COc1ccc(C(=O)/C=C/Nc2ccc([N+](=O)[O-])cc2C)c(OC)c1	-11%	.	-24%	-3%	?
37	COc1ccc(C(=O)/C=C/c2ccccc2F)c(OC(=O)c2ccc([N+](=O)[O-])cc2)c1	-33%	-10%	23µM*	9%	13µM*
38	Cc1cc(N)nc(=O)n1C1CC(O)C(CO)O1 (configuration not stated)	.	1%	4%	.	-23%
39	O=C(COc1ccc(Cl)cc1)N(Cc1ccccc1)c1nc(-c2ccccc2)cs1	0%	-1%	?	3%	26µM*
40	COc1ccc(-c2csc(N(CCc3ccccc3)C(=O)COc3ccccc3)n2)cc1	-20%	-2%	?	2%	?
41	COc1ccc(OC)c(S(=O)(=O)N2CCN(C34CC5CC(CC(C5)C3)C4)CC2)c1	5%	-3%	?	2%	16µM*
42	COc1ccc(OC)c(S(=O)(=O)N2CCN3CCCC3C2)c1 (configuration not stated)	-13%	0%	-11%	.	-3%

Looked up by compound from above (two):
cpd	canonical_smiles	miR-21 FLuc	uPA generation	TDP1 cell CPT	TDP1 block	TDP1 cell noCPT
42	COc1ccc(OC)c(S(=O)(=O)N2CCN3CCCC3C2)c1 (configuration not stated)	-13%	0%	-11%	.	-3%
31	COc1cc(/C=C/C(=O)OCC(=O)NC(C)c2ccccc2)cc(OC)c1OC (configuration not stated)	.	1%	11%	0%	-22%

One compound at a time (already shown):
Entry for `O=C(COc1ccc(Cl)cc1)N(Cc1ccccc1)c1nc(-c2ccccc2)cs1` : miR-21 FLuc = 0%; uPA generation = -1%; TDP1 cell CPT = ?; TDP1 block = 3%; TDP1 cell noCPT = 26µM*
Entry for `O=C(Oc1ccc(F)cc1C(=O)/C=C/c1cccs1)c1cccc([N+](=O)[O-])c1` : miR-21 FLuc = 12%; uPA generation = -9%; TDP1 cell CPT = 0.16µM*; TDP1 block = 8%; TDP1 cell noCPT = 0.37µM*
